Results reported in patent EP4755402A1, “ANTIBODY-DRUG CONJUGATE HAVING HIGH DRUG LOAD AND USE THEREOF” (priority 2023, dated 2025).

The substances below were run on SK-BR-3 cells (assay: In vitro killing activity (resazurin)). Settings: percentage of cytotoxicity relative to DP303c (from IC50); ADC conjugated with LND1002, 3 days at 37°C.
Format: cell-based

Substance	killing
DP14-ADC	211%
DP23-ADC	265%
DP21-ADC	154%
AB5-ADC: DP001 (anti-HER2) with LC: Addition of GGLQSGA at the C-terminus, conjugated to LND1002 via mTGase	166%
